Reference: patent US7049295B2, “Compounds and use thereof to modify transport across cell membranes” (Biotransys Limited, priority 1999, dated 2006)

System: receptor isolated from the HUVECS plasma membrane (albumin receptor protein)
Test: Interaction with purified isolated receptor reconstituted into FPE-labelled artificial membranes
Type: binding
Settings: 5 μM human serum albumin
Description: The following Examples illustrate the behaviour of various peptides and other molecules that promote transcellular transport of therapeutic molecules etc. These studies make use of techniques that show the interactions of molecules with receptors and cell membranes. […] The underlying theory and application of this technique is outlined in: • Wall, J., Ayoub, F. & O'Shea. P. (1995) J. Cell Sci. 108, 2673–2682 • Cladera, J. and O'Shea, P. (1998) Biophys. J. 74, 2434–2442 • Cladera, J., Martin, I., Ruysschaert, J. M. and O'Shea, P. (1999) J. Biol. Chem. 274, 29951–29959 the teaching of all of which is incorporated herein by reference.
FIG. 2 illustrates the interactions of BVS1 with a receptor isolated from the HUVECS plasma membrane and reconstituted into artificial membranes labelled with FPE. At the arrows, 5 μM BVS1 was added. Two separate experiments are shown and offset in the time dimension for clarity. In the second trace, however, addition of BVS1 was preceded by the addition of 5 μM of human serum albumin. […]

Substance: human serum albumin
- binding of human serum albumin to the reconstituted isolated receptor: appears to bind
